## Ab-14 light chain CDR variants: yeast mating affinities

The measurements come from Engelhart et al. 2022 (doi:10.1038/s41597-022-01779-4) through the FLAb antibody collection.

Target peptide (SARS-CoV-2 spike, HR2 region): PDVDLGDISGINAS

The variants keep the heavy chain, the linker and the frameworks of Ab-14 (scFv order VH, three GGGGS repeats, VL).
VH: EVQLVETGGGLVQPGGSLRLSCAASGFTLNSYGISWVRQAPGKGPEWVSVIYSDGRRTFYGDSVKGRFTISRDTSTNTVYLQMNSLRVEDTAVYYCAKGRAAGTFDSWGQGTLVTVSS
VL: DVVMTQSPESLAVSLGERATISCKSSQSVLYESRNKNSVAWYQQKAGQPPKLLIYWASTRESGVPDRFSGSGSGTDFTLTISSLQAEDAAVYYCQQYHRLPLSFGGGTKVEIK

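Phage display of a naive human antibody library on the peptide gave the parent. Variants in AAYL50 differ from the parent at up to three CDR positions; double and triple changes were sampled at random. In AlphaSeq, yeast of one mating type display the scFv and yeast of the other type display the target. After mating in shaken culture at 30 °C for 16 h, diploids were selected and their barcode pairs sequenced. A regression on co-assayed BCL2-family reference pairs converts the normalised counts of each replicate to an apparent Kd. Each pool was mated in three replicate cultures.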

Variants are written as CDR1, CDR2 and CDR3 of the light chain (limits as in the source). Parent: KSSQSVLYESRNKNSVA, WASTRES, QQYHRLPLS.
Values are log10 of the apparent Kd in nM; lower means stronger binding.
Averages over replicates are reported, and they cover detected replicates only.
An entry "n.d." has no value in the source: the pair was not observed among the diploids in that replicate. This suggests poor binding but is not conclusive.
For reference, the parent read 0.65 as the reference entry and 1.68 as a member of this library.
Background: pairings of library AAYL50 with three empty control strains gave a value in 18% of cases (median 4.19, 5th percentile 2.99). Values in that range, when seen in few replicates, are hard to tell from nonspecific mating. For each scFv, signals with the empty controls are counted beside the result, with their mean in brackets.

| CDR-L1 | CDR-L2 | CDR-L3 | replicates, log10 nM | mean log10 Kd (nM) | signal with controls |
|---|---|---|---|---|---|
| KSSISVLYESRGKNSVA | DASTRES | QQYHRLPLS | -0.27 / 0.04 / -0.20 | -0.14 | 2 of 9 (4.76) |
| KSSQSVLTESRNMNSVA | WTSTRES | QQYHRLPLS | 1.15 / 1.26 / 1.27 | 1.23 | 2 of 9 (3.49) |
| KSSQSVLYESRNKRSVA | WASTRES | QQYHLLQLS | 4.21 / 4.56 / n.d. | 4.38 | 1 of 9 (2.47) |
| KSSQSVLYESRNKNSVA | WAETRES | QQYHWLFLS | 1.37 / 1.54 / 1.55 | 1.49 | 1 of 9 (3.37) |
| KCSQSVLMESRNKNSVA | WASTREG | QQYHRLPLS | 0.58 / 0.75 / 0.62 | 0.65 | 5 of 9 (5.32) |
| KSTQSVLYESRNKNKVD | WASTRES | QQYHRLPLS | n.d. / 4.49 / 4.45 | 4.47 | 1 of 9 (3.88) |
| KSSQSVLYEFRNKNSVA | WASTRES | QQYHRLVLS | 2.90 / 3.54 / 3.01 | 3.15 | 2 of 9 (3.29) |
| KSYQSVLYEQRNKNSVA | WASHRES | QQYHRLPLS | 1.95 / 1.77 / 2.27 | 2.00 | 3 of 9 (4.70) |
| KSSQSVLYESRNKNSVA | WASTMES | AQYHRLPLS | 2.29 / 2.27 / 2.18 | 2.25 | 0 of 9 |
| KSSQSVLYESRNKMSVA | WASTRES | QQYHILPLS | 2.26 / 2.45 / 4.61 | 3.10 | 4 of 9 (3.46) |
| KSSQSVMAESRNKNSVA | WAHTRES | QQYHRLPLS | 2.12 / 1.91 / 1.99 | 2.00 | 0 of 9 |
| KSSQSVLYESRNKPSKA | WASTRES | QQYHRVPLS | n.d. / n.d. / 4.24 | 4.24 | 2 of 9 (4.06) |
| KSSQSVLYESNYKNSVA | WASTRRS | QQYHRLPLS | 0.97 / 1.18 / 1.17 | 1.11 | 1 of 9 (5.16) |
| KSSQSVLYESWYKNSVA | WASTRES | QHYHRLPLS | 1.32 / 1.33 / 1.25 | 1.30 | 1 of 9 (2.80) |
| KSSQSVLYESRNKNSVR | WATGRES | QQYHRLPLS | n.d. / n.d. / n.d. | n.d. | 0 of 9 |
| KSSQSVFYESRNKNSVA | WAGTRES | QQYHALPLS | 1.26 / 1.30 / 1.34 | 1.30 | 0 of 9 |
| KSKLSVLYESRNKNSVA | WASTRYS | QQYHRLPLS | 1.31 / 1.55 / 1.29 | 1.38 | 4 of 9 (4.36) |
| KSSQSVFYEARNKNSVA | WISTRES | QQYHRLPLS | 4.24 / 3.69 / 4.66 | 4.20 | 1 of 9 (5.12) |
| KSEQSVLYESRNKNSVA | WAKTRES | QQYHRLPLR | 3.75 / n.d. / n.d. | 3.75 | 2 of 9 (3.87) |
| KSSQSFLYESMNKNSVA | WASTRES | QQYHFLPLS | 2.69 / 2.87 / n.d. | 2.78 | 1 of 9 (3.93) |
| KSSQSVLYESRNPNSVA | WASTREW | QQYHRLPLC | n.d. / 1.77 / n.d. | 1.77 | 0 of 9 |
| KSSQSVLWESRNKNSVA | WASTRES | QQYHRLGLS | 2.38 / 1.90 / 2.64 | 2.31 | 2 of 9 (3.58) |
| KSRQFVLYESRNKNSVA | WASTRES | QQYHRLPLS | 1.65 / 2.37 / n.d. | 2.01 | 3 of 9 (3.85) |
| KSSQGVLGESRNKNSVA | WAKTRES | QQYHRLPLS | 1.44 / 1.68 / 1.68 | 1.60 | 0 of 9 |
| KSSQSVLYESNNKNSVA | WASTRES | QCYHRLALS | 1.18 / 1.31 / 1.27 | 1.25 | 5 of 9 (4.76) |
| KSCQSVLYESRNKNSVA | NASQRES | QQYHRLPLS | 0.46 / 0.72 / 0.52 | 0.57 | 6 of 9 (4.61) |
| KSIQSVLYESRMKNSVS | WASTRES | QQYHRLPLS | n.d. / n.d. / n.d. | n.d. | 0 of 9 |
| KSSQSVLYESRNKNSVA | WCSTRES | QQYHRLILS | 1.37 / n.d. / 2.71 | 2.04 | 0 of 9 |
| KSIQSVLRESRNKNSLA | WASTRES | QQYHRLPLS | n.d. / n.d. / n.d. | n.d. | 0 of 9 |
| KNSQSVLYESRNKNSVP | WASTRES | QQYHRFPLS | n.d. / n.d. / n.d. | n.d. | 0 of 9 |
| FSSQSVLYESRNKNSVA | WASTREL | QQYHRLPLS | 1.75 / 1.67 / 1.88 | 1.77 | 3 of 9 (4.11) |
| KSSQSVLYESRNKNSRA | FASTRES | LQYHRLPLS | 4.92 / 4.07 / n.d. | 4.49 | 8 of 9 (4.52) |
| KSSQSKLYESRNKNSVA | EAKTRES | QQYHRLPLS | 0.08 / 0.46 / 0.17 | 0.24 | 1 of 9 (4.70) |
| KRSQSVLYESRNKNSVA | WASTRES | QQYANLPLS | 2.41 / 1.78 / 2.04 | 2.08 | 3 of 9 (3.92) |
| KSSQSELYESRNKNSVA | WASTRES | QQYHGLCLS | 0.24 / 0.55 / 0.64 | 0.48 | 0 of 9 |

The opening 3 entries, copied out:

CDR-L1	CDR-L2	CDR-L3	replicates, log10 nM	mean log10 Kd (nM)	signal with controls
KSSISVLYESRGKNSVA	DASTRES	QQYHRLPLS	-0.27 / 0.04 / -0.20	-0.14	2 of 9 (4.76)
KSSQSVLTESRNMNSVA	WTSTRES	QQYHRLPLS	1.15 / 1.26 / 1.27	1.23	2 of 9 (3.49)
KSSQSVLYESRNKRSVA	WASTRES	QQYHLLQLS	4.21 / 4.56 / n.d.	4.38	1 of 9 (2.47)